Laboratory results from patent US7919584.

Molecular target: GST-FLJ31349 PDZ domain fusion protein (human) [GST: P08515]
Experiment: modified G assay, peptide titrated against a constant amount of immobilized GST-PDZ fusion; Hill fit

## Tat-CLCA3 peptide (11 residues of Tat coupled to the C-terminal 9 amino acids of mCLCA3), biotinylated
  EC50: 600 nM
